Assay results from PubChem BioAssay AID602346 (Broad Institute, 2012).
This is a selection; strong and weak results do not stand in their true shares. Calls of active or inactive are those of the source. Rule as the data show it: active = inhibition above about 50% (passing the limit was not always enough); inconclusive = no clear call, values can overlap the other calls; inactive = below about 31%.

assay: blockers of Vif multimerization in cells – imaging, HEK293T, single point, primary screen (AID 602346); details: Vif self-association by quenched fluorescence, 24 h, at 7.49 µM, hits give high values

Row | SMILES | inhibition
1 | CC1=NCCc2c1[nH]c1ccccc21.O=[N+]([O-])c1cc([N+](=O)[O-])c(O)c([N+](=O)[O-])c1 | inactive: -4.21%
2 | O=C(O)c1cccc(Nc2c([N+](=O)[O-])cc([N+](=O)[O-])cc2[N+](=O)[O-])c1 | inactive: 4.66%
3 | Cc1ccc(C)c(NP(C)(=O)Oc2ccccc2)c1 (stereo unspecified) | inactive: -8.73%
4 | Cc1cc(C)cc(OP(C)(=O)Nc2ccccn2)c1 (stereo unspecified) | inactive: -6%
5 | CP(=O)(Nc1cccc(Br)c1)Oc1ccccc1 (stereo unspecified) | inactive: 2.63%
6 | COc1ccccc1OP(C)(=O)Nc1cccc(Br)c1 (stereo unspecified) | inactive: -0.885%
7 | CCOC(=O)c1ccc(NP(C)(=O)Oc2cc(C)cc(C)c2)cc1 (stereo unspecified) | inactive: -5.9%
8 | Cc1cc(C)cc(OP(C)(=O)Nc2ccc(C)cc2C)c1 (stereo unspecified) | inactive: -4.6%
9 | O=[N+]([O-])c1cc([N+](=O)[O-])c(-c2cnn(-c3ccccc3)c2)c([N+](=O)[O-])c1 | inactive: -16.5%
10 | Cc1nc2ccc3ccccc3c2s1.O=[N+]([O-])c1cc([N+](=O)[O-])c(O)c([N+](=O)[O-])c1 | inactive: 3.18%
11 | O=[N+]([O-])c1cc([N+](=O)[O-])c(-n2nnc3ccccc32)c([N+](=O)[O-])c1 | inactive: -7.98%
12 | COc1ccccc1OP(C)(=O)Nc1c(C)cccc1C (stereo unspecified) | inactive: -2.99%
13 | CN1CCCCC1COC(=O)C1(O)c2ccccc2CCc2ccccc21 (stereo unspecified) | inactive: -12.6%
14 | CCCOc1ccc(NP(C)(=O)Oc2ccc(Cl)cc2)cc1 (stereo unspecified) | inactive: -3.57%
15 | CC1=C2N=C(C=C3N=C(C(C)=C4[N-][C@@](C)([C@@H]5N=C1[C@](C)(CCC(=O)NC[C@@H](C)OP(=O)([O-])O[C@H]1[C@@H](O)[C@@H](n6cnc7cc(C)c(C)cc76)O[C@@H]1CO)[C@H]5CC(N)=O)[C@@](C)(CC(N)=O)[C@@H]4CCC(N)=O)[C@@](C)(CC(N)=O)[C@@H]3CCC(N)=O)C(C)(C)[C@@H]2CCC(N)=O.[C-]#N.[Co+3] | inactive: -4.57%
16 | O=[N+]([O-])c1cc([N+](=O)[O-])c(Nc2nnnn2CCO)c([N+](=O)[O-])c1 | inactive: -3.01%
17 | CCOC(=O)C(CC)C1=NC(C)(C)Cc2ccccc21.O=[N+]([O-])c1cc([N+](=O)[O-])c(O)c([N+](=O)[O-])c1 (stereo unspecified) | inactive: 2.35%
18 | CP(=S)(Nn1cnnc1)Oc1ccccc1 (stereo unspecified) | inactive: 8.41%
19 | CP(=O)(Nc1ccccc1Br)Oc1ccccc1 (stereo unspecified) | inactive: 3.8%
20 | COc1ccccc1OP(C)(=O)Nc1ccccc1 (stereo unspecified) | inactive: 9.31%
21 | CCOC(=O)c1ccc(NP(C)(=O)Oc2ccc(OC)cc2)cc1 (stereo unspecified) | inactive: -8.56%
